Biological target: T1, 5-LO (Homo sapiens, UniProt P09917)
T1 construct: incubating a test compound with heparinised human blood, prior to challenge with the calcium ionophore A23187; endogenous in cells; host or cells: leukocytes of heparinised human whole blood
T1 sequence (P09917 1-674): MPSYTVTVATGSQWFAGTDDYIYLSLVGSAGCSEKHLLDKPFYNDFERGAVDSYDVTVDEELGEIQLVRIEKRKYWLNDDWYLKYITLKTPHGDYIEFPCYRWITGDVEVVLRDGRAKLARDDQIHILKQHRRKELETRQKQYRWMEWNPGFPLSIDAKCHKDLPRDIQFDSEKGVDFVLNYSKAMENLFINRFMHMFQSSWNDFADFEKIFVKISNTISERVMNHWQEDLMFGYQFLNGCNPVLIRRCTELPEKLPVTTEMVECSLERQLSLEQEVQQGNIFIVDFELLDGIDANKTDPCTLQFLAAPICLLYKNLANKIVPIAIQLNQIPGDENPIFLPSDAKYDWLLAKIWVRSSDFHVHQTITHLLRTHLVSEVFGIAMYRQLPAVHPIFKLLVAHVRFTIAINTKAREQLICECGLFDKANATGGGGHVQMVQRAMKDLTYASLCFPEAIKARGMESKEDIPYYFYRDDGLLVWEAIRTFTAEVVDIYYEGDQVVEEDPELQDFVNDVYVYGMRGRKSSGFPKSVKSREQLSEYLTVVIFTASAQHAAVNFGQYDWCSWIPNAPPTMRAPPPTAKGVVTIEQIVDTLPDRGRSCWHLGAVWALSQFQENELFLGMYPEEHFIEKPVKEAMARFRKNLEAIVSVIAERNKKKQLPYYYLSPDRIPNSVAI
Experiment: Test b): in vitro heparinised human blood challenged with calcium ionophore A23187, radioimmunoassay of LTB4
Type: cell-based
Conditions: A23187 challenge, read-out: IC50 against LTB4
Procedure: As stated previously, the heterocycles of the formula I are inhibitors of the enzyme 5-LO. […] This test provides a measure of the intrinsic inhibitory properties against soluble 5-LO in an extracellular environment. • b) An in vitro assay system involving incubating a test compound with heparinised human blood, prior to challenge with the calcium ionophore A23187 and then indirectly measuring the inhibitory effects on 5-LO by assaying the amount of L TB4 using the specific radioimmunoassay described by Carey and Forder (F. Carey and R.A. Forder, Brit. […] The effects of a test compound on the enzyme cyclooxygenase (which is involved in the alternative metabolic pathway for arachidonic acid and gives rise to prostaglandins, thromboxanes and related metabolites) may be measured at the same time using the specific radioimmunoassay for thromboxane B2(TxB2) described by Carey and Forder (see above). […] It permits the selectivity of the inhibitory effect on 5-LO or cyclooxygenase to be assessed. • c) An ex vivo assay system, which is a variation of test b) above, involving administration of a test compound (usually orally as the suspension produced when a solution of the test compound in dimethylsulphoxide is added to carboxymethylcellulose), blood collection, heparinisation, challenge with A23187 and radioimmunoassay of L TB4 and TxB2. […]

IC50: 0.03 µM
SMILES: COC1(c2cccc(OCc3ccc4c(ccc(=O)n4C)c3)c2)CCOCC1 [4-[3-(1,2-dihydro-1-methyl-2-oxoquinolin-6-ylmethoxy)phenyl]-4-methoxytetrahydropyran]
